{
  "source": "ChEMBL document CHEMBL1148439",
  "about": "“A phenylnorstatine inhibitor binding to HIV-1 protease: geometry, protonation, and subsite-pocket interactions analyzed at atomic resolution” (J Med Chem, 2004)",
  "molecular_target": "Human immunodeficiency virus type 1 protease (Human immunodeficiency virus 1, UniProt Q72874)",
  "experiment": "Tested for inhibitor binding of wild-type HIV PR",
  "parameters": "species or system human immunodeficiency virus type1",
  "data": [
    {"smiles": "NC(=O)[C@H](CCC(=O)O)NC(=O)[C@H](CCC(=O)O)NC(=O)[C@H](Cc1ccccc1)NC(=O)[C@H](O)[C@H](Cc1ccccc1)NC(=O)OCc1ccccc1", "values": [
      {"measurement": "Ki", "result": 180, "unit": "pM"}
    ]}
  ]
}
